Test results: patent US9745305B2, “Modulators of methyl modifying enzymes, compositions and uses thereof” (Constellation Pharmaceuticals, Inc., priority 2013, dated 2017)

By UniProt entry, the sequences of proteins in these tests, tags left out. Where a name states a change or a piece, a line headed by the entry shows the natural chain unless it says otherwise.
UniProt Q15910, whole entry: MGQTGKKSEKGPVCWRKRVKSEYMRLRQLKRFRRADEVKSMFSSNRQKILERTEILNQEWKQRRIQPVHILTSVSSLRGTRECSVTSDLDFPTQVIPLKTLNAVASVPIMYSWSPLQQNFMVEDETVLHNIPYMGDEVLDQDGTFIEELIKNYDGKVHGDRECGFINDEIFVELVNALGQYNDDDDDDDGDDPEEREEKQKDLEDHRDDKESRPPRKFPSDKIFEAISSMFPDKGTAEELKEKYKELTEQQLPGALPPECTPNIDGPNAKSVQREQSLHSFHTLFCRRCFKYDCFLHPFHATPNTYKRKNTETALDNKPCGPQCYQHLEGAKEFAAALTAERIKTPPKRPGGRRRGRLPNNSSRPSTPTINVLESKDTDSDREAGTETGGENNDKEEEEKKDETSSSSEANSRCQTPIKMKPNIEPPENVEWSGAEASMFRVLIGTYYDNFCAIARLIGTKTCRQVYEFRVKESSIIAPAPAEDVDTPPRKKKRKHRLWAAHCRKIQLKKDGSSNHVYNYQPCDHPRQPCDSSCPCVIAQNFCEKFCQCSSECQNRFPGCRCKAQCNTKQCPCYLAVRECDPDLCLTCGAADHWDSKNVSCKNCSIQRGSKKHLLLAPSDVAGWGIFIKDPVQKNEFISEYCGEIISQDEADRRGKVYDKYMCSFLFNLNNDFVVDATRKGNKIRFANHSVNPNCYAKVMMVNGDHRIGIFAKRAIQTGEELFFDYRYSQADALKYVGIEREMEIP
UniProt Q15910, whole entry Y641N: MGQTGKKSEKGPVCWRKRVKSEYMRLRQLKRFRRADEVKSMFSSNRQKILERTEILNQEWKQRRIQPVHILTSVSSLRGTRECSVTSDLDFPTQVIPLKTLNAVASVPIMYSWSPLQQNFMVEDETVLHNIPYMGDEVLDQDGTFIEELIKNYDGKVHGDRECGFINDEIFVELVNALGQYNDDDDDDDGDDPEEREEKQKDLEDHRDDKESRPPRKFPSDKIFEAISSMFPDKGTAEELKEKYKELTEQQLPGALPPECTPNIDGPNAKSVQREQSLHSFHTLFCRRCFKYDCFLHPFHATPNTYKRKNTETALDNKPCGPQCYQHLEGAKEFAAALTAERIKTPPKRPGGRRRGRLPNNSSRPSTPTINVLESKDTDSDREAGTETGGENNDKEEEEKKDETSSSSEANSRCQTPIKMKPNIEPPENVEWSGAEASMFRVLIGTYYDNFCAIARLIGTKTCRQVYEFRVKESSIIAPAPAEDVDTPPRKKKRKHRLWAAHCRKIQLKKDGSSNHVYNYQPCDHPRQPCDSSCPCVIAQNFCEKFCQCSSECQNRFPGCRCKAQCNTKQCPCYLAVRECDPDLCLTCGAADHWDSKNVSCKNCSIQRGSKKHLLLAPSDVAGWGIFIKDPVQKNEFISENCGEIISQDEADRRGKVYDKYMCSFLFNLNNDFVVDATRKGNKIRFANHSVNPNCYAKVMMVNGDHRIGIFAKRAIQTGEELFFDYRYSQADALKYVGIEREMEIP
UniProt Q15022, whole entry partner: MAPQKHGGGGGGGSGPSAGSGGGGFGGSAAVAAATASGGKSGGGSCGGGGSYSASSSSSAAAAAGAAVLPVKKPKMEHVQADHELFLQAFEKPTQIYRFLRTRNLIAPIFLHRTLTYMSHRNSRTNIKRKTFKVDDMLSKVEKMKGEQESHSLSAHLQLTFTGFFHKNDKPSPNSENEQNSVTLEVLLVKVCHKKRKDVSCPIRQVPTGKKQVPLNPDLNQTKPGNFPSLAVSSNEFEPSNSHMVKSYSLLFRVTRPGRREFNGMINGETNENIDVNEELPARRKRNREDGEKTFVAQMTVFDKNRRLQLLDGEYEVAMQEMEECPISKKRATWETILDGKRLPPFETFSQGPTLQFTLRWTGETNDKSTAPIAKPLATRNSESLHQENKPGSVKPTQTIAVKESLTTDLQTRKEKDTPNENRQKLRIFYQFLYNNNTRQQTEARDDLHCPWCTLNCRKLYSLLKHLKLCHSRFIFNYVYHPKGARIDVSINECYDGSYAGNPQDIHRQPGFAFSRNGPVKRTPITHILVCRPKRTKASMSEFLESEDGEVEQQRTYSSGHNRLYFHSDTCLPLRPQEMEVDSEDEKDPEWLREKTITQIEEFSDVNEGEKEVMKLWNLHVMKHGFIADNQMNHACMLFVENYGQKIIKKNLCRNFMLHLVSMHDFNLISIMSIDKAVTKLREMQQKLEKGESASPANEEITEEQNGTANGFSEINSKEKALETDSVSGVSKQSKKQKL
UniProt O75530, whole entry partner: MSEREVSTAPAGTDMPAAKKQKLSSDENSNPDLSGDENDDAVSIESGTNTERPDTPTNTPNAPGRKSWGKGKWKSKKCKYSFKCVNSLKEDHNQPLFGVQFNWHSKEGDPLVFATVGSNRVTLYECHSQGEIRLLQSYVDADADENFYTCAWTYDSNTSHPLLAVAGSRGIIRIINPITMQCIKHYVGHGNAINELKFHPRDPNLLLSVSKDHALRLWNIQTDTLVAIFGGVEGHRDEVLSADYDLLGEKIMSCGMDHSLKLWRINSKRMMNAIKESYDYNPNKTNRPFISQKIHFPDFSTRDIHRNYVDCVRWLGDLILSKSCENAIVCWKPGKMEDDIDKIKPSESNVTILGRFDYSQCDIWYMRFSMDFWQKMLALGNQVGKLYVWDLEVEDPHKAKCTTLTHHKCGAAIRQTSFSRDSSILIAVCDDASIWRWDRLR

Tests used:
EZH2 = EZH2 (Homo sapiens, UniProt Q15910); test: EZH2 Assay (3H SAM methyl transfer, rPRC2, FlashPlate); details: rPRC2, biotinylated oligonucleosomes, 0.2 μM 3H SAM, 2 nM EZH2; for IC50: read-out: EZH2 IC50
Description: (§1) EZH2 Assay: Assays were carried out by mixing rPRC2 together with biotinylated oligonucleosome substrates in the presence of the radio-labeled enzyme co-factor, S-adenosyl-L-methionine (^3H SAM) (Perkin Elmer) and monitoring the enzymatically mediated transfer of tritiated methyl groups from ^3H SAM to histone lysine residues. The amount of resulting tritiated methyl histone product was measured by first capturing the biotinylated oligonucleosomes in streptavidin (SAV) coated FlashPlates (Perkin Elmer), followed by a wash step to remove unreacted ^3H SAM, and then counting on a TopCount NXT 384 well plate scintillation counter (Perkin Elmer). The final assay conditions for EZH2 were as follows: 50 mM Tris Buffer pH 8.5, 1 mM DTT, 69 μM Brij-35 detergent, 5.0 mM MgCl2, 0.1 mg/mL BSA, 0.2 μM ^3H SAM, 0.2 μM biotinylated oligonucleosomes, 3.6 μM H3K27me3 peptide and 2 nM EZH2.
(§2) Compound IC50 measurements were obtained as follows: Compounds were first dissolved in 100% DMSO as 10 mM stock solutions. Ten point dose response curves were generated by dispensing varying amounts of the 10 mM compound solution in 10 wells of the 384 well plate (Echo; Labcyte), pure DMSO was then used to backfill the wells to insure all wells have the same amount of DMSO. A 12.5 μL volume of the HMT enzyme, H3K27me3 peptide and oligonucleosome substrate in assay buffer was added to each well of the assay plate using a Multidrop Combi (ThermoFisher). Compounds were pre-incubated with the enzyme for 20 min, followed by initiation of the methyltransferase reaction by addition of 12.5 μL of ^3H SAM in assay buffer (final volume=25 μL). The final concentrations of compounds ranged from a top default concentration of 80 μM down to 0.16 μM in ten 2-fold dilution steps. Reactions were carried out for 60 minutes and quenched with 20 μL per well of 1.96 mM SAH, 50 mM Tris pH 8.5, 200 mM EDTA. […]

Y641N EZH2 = Y641N EZH2 (Homo sapiens, UniProt Q15910, Y641N); test: Assay for Y641N EZH2 (as the EZH2 assay, H3K27Me2 oligonucleosomes as substrate); details: Y641N EZH2 mutant, reconstituted H3K27Me2 oligonucleosomes as substrate; for IC50: read-out: Y641N EZH2 IC50
Description: as §1, §2

[1] = system: H3K27me3 mark in Hela cells expressing wild type EZH2; test: H3K27me3 MSD Hela Assay; details: read-out: H3K27me3_MSD_HeLa (EC50), 96 hours
Description: H3K27me3 MSD Hela Assay. Trypsinized HeLa cells were counted and diluted in 10% DMEM (Life Technologies, Cat. #10569) to 5000 cells/75 μL. Seventy-five μL of cells were place in each well of a 96-well flat-bottomed plate and incubated at 37° C. for 4 hours. Twenty-five μL of test compound (at various concentrations) was added to the cells and incubation continued at 37° C. for 96 hours. Media was then removed and the cells rinsed once with ice cold PBS. Forty μL of ice-cold MSD Buffer AT (10 mM HEPES, pH 7.9, 5 mM MgCl2, 0.25M sucrose, Benzonase (1:10000), 1% Triton X-100 supplemented with fresh 1× Protease Inhibitor cocktail and 1 mM 4-(2-Aminoethyl)benzenesulfonyl fluoride hydrochloride (AEBSF)) was added to each well and the plates placed on ice for 30 minutes. Ten μL of 5M NaCl was then added to each well and incubation on ice continued for another 15 minutes. […]
The antibody mix was then removed and the wells washed with Blocker A. One hundred-fifty μL of freshly prepared 1×MSD Read Buffer (Meso-Scale Discovery; Cat #R927C-2) was then added to each well and the plates read on a MSD Sector 2400 Plate Reader.
Data was analyzed using Assay Assistant (Constellation Pharmaceuticals In-house product) and Activity Base (IDBS Ltd, Surrey, UK) template. […] Readout of DMSO wells were used to normalize the data. […]

Compound | EZH2 IC50 (EZH2) | Y641N EZH2 IC50 (Y641N EZH2) | IC50 (EZH2) [nM] | IC50 (Y641N EZH2) [nM] | EC50 [1] [nM]
COc1cc(C)[nH]c(=O)c1CNC(=O)c1c(C)c(-c2nn(C)cc2C)n2ncccc12 | *(0.5 μM) | *(0.5 μM) | – | – | –
CCS(=O)(=O)N1CCC(C(C)c2c(C)c(C(=O)NCc3c(OC)cc(C)[nH]c3=O)c3cccnn23)CC1 (racemic) | – | – | < 100 | < 100 | –
COc1cc(C)[nH]c(=O)c1CNC(=O)c1c(C)c(C(C)C2CCOCC2)n2ccncc12 (racemic) | – | – | < 100 | < 100 | < 400
